# Target: rat brain membranes serotonin 5-HT2A receptors (Rattus norvegicus, UniProt P14842)
# Protein sequences, listed by entry. Tags and fused reporters are not part of them.
# UniProt P14842, whole entry: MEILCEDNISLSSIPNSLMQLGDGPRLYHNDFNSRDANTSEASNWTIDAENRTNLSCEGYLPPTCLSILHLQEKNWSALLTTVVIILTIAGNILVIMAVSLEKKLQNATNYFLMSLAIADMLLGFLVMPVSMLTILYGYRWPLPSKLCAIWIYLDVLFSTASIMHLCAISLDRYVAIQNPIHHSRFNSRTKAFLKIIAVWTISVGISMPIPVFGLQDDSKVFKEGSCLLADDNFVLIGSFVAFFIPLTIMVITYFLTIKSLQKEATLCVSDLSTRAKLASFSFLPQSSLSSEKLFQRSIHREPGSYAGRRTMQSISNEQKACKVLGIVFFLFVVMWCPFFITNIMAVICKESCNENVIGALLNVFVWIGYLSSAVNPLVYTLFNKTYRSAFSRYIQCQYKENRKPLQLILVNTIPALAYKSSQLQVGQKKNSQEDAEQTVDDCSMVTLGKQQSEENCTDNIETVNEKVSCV
# Conditions: up to 10 μM
row,SMILES,inhibition of [^3H]ketanserin binding
1,C[N+](C)(C)CCCC1(c2ccc(F)cc2)OCc2cc(C#N)ccc21 (centres unmarked) [NMC],did not inhibit
2,"CN(C)CCCC1(c2ccc(F)cc2)OCc2cc(C#N)ccc21 (centres unmarked) [Citalopram, 1-(3-Dimethylamino-propyl)-1-(4-fluoro-phenyl)-1,3-dihydro-isobenzofuran-5-carbonitrile]",did not inhibit

# Source: patent US9278947B2 (dated 2016)
